This is an account of results in PubChem BioAssay AID461 (SRMLSC, 2006).

Protein sequences, listed by entry. Tags and fused reporters are not part of them.
UniProt P04626, whole entry: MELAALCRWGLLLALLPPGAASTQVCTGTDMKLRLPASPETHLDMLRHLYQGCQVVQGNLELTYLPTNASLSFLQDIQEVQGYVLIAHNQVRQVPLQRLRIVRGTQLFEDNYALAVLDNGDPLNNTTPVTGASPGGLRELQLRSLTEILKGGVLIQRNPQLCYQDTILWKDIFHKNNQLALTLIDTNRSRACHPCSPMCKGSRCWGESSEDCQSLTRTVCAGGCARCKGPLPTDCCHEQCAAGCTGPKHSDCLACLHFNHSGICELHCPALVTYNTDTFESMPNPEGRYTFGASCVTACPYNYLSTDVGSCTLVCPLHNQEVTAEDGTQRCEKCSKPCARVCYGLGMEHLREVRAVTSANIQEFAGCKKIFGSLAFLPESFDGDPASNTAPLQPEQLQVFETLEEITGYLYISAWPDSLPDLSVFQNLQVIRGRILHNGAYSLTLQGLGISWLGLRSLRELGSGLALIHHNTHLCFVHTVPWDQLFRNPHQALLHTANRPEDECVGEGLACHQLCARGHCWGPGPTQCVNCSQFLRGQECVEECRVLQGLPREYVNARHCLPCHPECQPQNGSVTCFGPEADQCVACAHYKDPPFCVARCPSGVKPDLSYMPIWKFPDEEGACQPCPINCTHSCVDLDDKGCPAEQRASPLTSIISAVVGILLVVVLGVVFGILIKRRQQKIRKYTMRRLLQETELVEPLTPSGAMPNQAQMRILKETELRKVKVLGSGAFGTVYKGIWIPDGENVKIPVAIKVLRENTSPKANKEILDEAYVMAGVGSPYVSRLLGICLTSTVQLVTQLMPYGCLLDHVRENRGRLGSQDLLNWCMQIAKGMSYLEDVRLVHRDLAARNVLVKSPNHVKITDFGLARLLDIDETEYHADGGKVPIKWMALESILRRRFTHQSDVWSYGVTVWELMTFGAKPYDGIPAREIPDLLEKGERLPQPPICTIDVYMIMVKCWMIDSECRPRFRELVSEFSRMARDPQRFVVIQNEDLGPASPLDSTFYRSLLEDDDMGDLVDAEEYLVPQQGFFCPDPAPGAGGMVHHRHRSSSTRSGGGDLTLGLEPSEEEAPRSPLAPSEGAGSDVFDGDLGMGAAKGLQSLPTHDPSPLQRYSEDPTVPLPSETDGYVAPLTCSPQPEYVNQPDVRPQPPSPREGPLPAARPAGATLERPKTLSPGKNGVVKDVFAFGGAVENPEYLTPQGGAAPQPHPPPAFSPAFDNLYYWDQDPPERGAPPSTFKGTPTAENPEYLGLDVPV

The entries are a selection whose mix differs from that of the whole data set. The source made the active and inactive calls.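 Rule for the calls: active = Her2 level under about 52% in both replicate screens, with viability over 70% of control (limit read from the data); inconclusive = Her2 under the limit in one screen only, or viability under 70%; inactive = Her2 level above the set limit.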

This assay addresses Receptor tyrosine-protein kinase erbB-2 (Homo sapiens) (UniProt P04626). Kind of assay: Her2 expression decrease, cell viability multiplex – SKBR3 breast tumor cells, AlphaScreen, ATP viability, primary screen (AID 461).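 Note: lower value means less Her2 protein in the cells.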 The conditions noted are these: 18-24 h, at 10 µM, stronger effect = lower value. On the technique in general: Bead proximity is the source of the signal in Alpha formats.
Take `Fc1ccccc1NC1CCN(Cc2ccccc2)CC1`: the Her2 level was inactive: 91%.
